Measured values taken from PMC5541792, “Simultaneous Determination of 11 Compounds in Gualou Guizhi Granule and Pharmacokinetics Study by UPLC-MS/MS” (Journal of Analytical Methods in Chemistry, 2017).

Assay: Stability of analytes in rat plasma samples (method validation)
Format: in vitro ADME
Conditions: high QC nominal concentration, n = 6
Experimental: Stability of the analytes from plasma samples was performed by determining three different concentrations (low, middle, and high samples) in six replicates under different conditions. It included short-term stability which was assessed by keeping samples at room temperature (25°C) for 24 h, stability which was measured using samples stored at 4°C for 24 h, and freeze-thaw stability that was determined after three freeze-thaw cycles at −80°C.

Row | SMILES | Stability (24 h at room temperature) Mean (25°C for 24 h) | Freeze-thaw stability (3 cycles) Mean (three freeze-thaw cycles at −80°C)
1 | O=C(/C=C/c1ccc(O)cc1)c1ccc(O)cc1O [Isoliquiritigenin, isoliquiritigenin] | 100.94% | 
2 | C[C@@]12C[C@@]3(O)O[C@@H](O1)[C@]1(COC(=O)c4ccccc4)[C@H]3C[C@@]12O[C@@H]1O[C@H](CO)[C@@H](O)[C@H](O)[C@H]1O [Paeoniflorin, paeoniflorin] |  | 107.48%
